One molecule from article PMC3917282, “Alkaloids from the Mangrove-Derived Actinomycete Jishengella endophytica 161111” (Marine Drugs, 2014) can be followed below.

Values after ≈ are worked out from the molar mass of the structure shown.

Data set [1] is described as follows: in vitro. Particulars: dog.
In data set [2] the test system is influenza virus (A/Puerto Rico/8/34 (H1N1), PR/8). The class given is cell-based.

Molecule `Cc1cc2nc3[nH]c(=O)[nH]c(=O)c3nc2cc1C` [Compound 10, lumichrome] registered a CC50 in data set [1] of 124 ± 10.5 µg/mL (≈ 512 µM). Moreover, the “selectivity index (SI)” value in data set [2] came to 3.1.
